Measured values taken from US20200157135A1, “SIDE-CHAIN MODIFIED ERGOSTEROL AND STIGMASTEROL DERIVATIVES AS LIVER X RECEPTOR MODULATORS” (Ospedale San Raffaele srl, priority 2017, published 2020).
Read-outs that look alike come from different tables or passages of the source.

The chains behind the UniProt entries cited, without tags or fusion partners. Residues count along the entry.
UniProt Q13133, 209-447 limits assumed: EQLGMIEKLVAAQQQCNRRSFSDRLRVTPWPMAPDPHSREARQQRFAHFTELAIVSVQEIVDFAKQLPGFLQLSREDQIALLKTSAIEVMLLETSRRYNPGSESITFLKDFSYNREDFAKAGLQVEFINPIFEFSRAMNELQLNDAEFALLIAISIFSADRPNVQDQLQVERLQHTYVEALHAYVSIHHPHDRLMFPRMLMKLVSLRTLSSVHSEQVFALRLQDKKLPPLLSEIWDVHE
UniProt P55055, 222-460 limits assumed: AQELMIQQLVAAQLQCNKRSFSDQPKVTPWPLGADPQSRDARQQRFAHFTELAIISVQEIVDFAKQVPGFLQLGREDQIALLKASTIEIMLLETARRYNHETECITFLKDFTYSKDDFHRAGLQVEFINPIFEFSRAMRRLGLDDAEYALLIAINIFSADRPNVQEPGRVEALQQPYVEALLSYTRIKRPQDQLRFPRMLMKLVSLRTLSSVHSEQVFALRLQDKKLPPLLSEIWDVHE

Experiments:
hLXRα = hLXRα (Homo sapiens, UniProt Q13133); assay: luciferase assay with GAL-4 chimeric hLXRα receptor in human embryonic kidney 293 cells; type: cell-based; conditions: HEK293, 24 h, read-out: LXRα Efficacy (%) ± SD
Description: (§1) All the synthesized compounds were first tested for their ability to activate LXRs by using luciferase assays with GAL-4 chimeric receptors. These were performed by co-transfecting plasmids encoding hLXRα- and β-binding domains fused to GAL-4, with the respective responsive element conjugated with the luciferase reporter gene into the human embryonic kidney 293 cells.
(§2) Cell Culture and Co-transfection Assays. Human embryonic Kidney 293 cells (American Type Culture Collection) were cultured in Dulbecco's Modified Eagle's medium containing 10% of fetal bovine serum at 37° C. in humidified atmosphere of 5% CO2. HEK293 cells (4×10^4 cells per well) were transiently transfected in 48 well plate with the reporter plasmids pMH100X4-TK-luc (100 ng/well), Renilla (22 ng/well) together with 100 ng/well of pCMX-Gal4-RXR, pCMX-Gal4-PPAR-γ, pCMX-Gal4-PXR, pFA-CMV-FXR pCMX-Gal4-LXR-α or pCMX-Gal4-LXR-β plasmids using X-tremeGENE 9 DNA Transfection Reagent (Roche). Six hours after transfection, the cells were treated with the appropriate compound for 24 hours. Luciferase activities were analyzed by luciferase Dual Reporter Assay Systems (Promega) according to the manufacturer's protocol. GAL4-LXRs, GAL4-PPAR-γ, GAL4-RXR and TK-MHC100-luc plasmids were described in Villablanca et al.49 GAL4-PXR was a kind gift of Dr. Enrique Sainz (The Scripps Research Institute, La Jolla, USA). GAL4-FXR was a kind gift of Dr. Daniel Merk (Goethe-University Frankfurt am Main). The results obtained by luciferase assays and reported in Table 1 are from three to five independent experiments.
(§3) Statistical analysis. Data are expressed as mean±SEM and were analyzed for significance by ANOVA with Dunnet's multiple comparison tests. The analysis was performed with Prism software. Data in Table 1 are expressed as EC50±SD. In particular, the standard deviations were obtained by calculating the mean of the EC50 of each experiment (three to five independent experiments). The efficacy (%) of the compounds was calculated as the percentage of the compound effect, in terms of LXRα or β activation, versus 8 μM of 22R—HC±SD. […]

hLXRβ = hLXRβ (Homo sapiens, UniProt P55055); assay: luciferase assay with GAL-4 chimeric hLXRβ receptor in human embryonic kidney 293 cells; type: cell-based; conditions: HEK293, 24 h
Description: as §1, §2, §3

[1] = % of compound effect versus 8 μM of 22R-HC
[2] = % of compound effect versus 8 μM of 22R-HC, read-out: LXRβ Efficacy (%) ± SD

Row | SMILES | Emax (hLXRα; [1]) [%] | Emax (hLXRβ; [2]) [%] | Emax (hLXRα) [%] | Emax (hLXRβ; read-out: LXRβ Efficacy (%) ± SD, % of compound effect versus 8 μM of 22R-HC) [%]
1 | CC[C@@H](C(C)C)[C@H](O)C[C@@H](C)[C@H]1CC[C@H]2[C@@H]3CC=C4C[C@@H](O)CC[C@]4(C)[C@H]3CC[C@]12C [Compound 19, (23R)-3β-Stigmast-5-ene-3,23-diol] | 489 ± 70.1 | 115 ± 2.8 |  | 
2 | CC[C@H](C[C@@H](O)[C@@H](C)[C@H]1CC[C@H]2[C@@H]3CC=C4C[C@@H](O)CC[C@]4(C)[C@H]3CC[C@]12C)C(C)C [Compound 20, (22R)-3β-stigmast-5-ene-3,22-diol] |  |  | 208 ± 69.3 | 90.8 ± 13.2
3 | CC(C)[C@@H](C)C[C@H](O)[C@@H](C)[C@H]1CC[C@H]2C3=CC=C4C[C@@H](O)CC[C@]4(C)[C@H]3CC[C@]12C [Compound 22, (22S)-3β-Ergost-5,7-diene-3,22-diol] | 74.7 ± 11.1 | 41.9 ± 19.2 |  | 
